Laboratory results taken from patent US20240358672A1, “APPLICATION OF GENISTEIN AND ITS PHOSPHATE ESTER DERIVATIVE AND PHARMACEUTICAL COMPOSITION COMPRISING THE SAME” (National Taiwan University, priority 2023, published 2024).

Chains of the proteins cited; added tags and fusions are not shown.
UniProt P47746, whole entry: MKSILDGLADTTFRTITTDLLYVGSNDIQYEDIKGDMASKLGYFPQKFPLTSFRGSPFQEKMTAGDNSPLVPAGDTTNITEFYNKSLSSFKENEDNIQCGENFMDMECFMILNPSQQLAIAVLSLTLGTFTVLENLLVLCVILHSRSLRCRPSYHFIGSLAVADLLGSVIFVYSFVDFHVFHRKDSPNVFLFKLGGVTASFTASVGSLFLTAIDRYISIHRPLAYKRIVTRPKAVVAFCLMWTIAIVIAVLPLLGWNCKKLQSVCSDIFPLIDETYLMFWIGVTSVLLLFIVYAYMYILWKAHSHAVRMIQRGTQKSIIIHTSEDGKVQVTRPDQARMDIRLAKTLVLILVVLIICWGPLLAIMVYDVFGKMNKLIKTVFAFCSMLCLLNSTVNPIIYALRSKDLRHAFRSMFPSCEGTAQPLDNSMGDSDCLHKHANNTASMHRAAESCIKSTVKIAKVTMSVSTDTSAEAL

Molecular target: CB1 receptor (Mus musculus, UniProt P47746)
Test: Confocal co-localization with CB1 receptor in mouse thoracic aorta
Conditions: rimonabant pretreatment 30 min

Cc1c(C(=O)NN2CCCCC2)nn(-c2ccc(Cl)cc2Cl)c1-c1ccc(Cl)cc1 [rimonabant]
effect on BODIPY517/547-genistein binding and fluorescence: reduced BODIPY517/547-genistein binding and fluorescence significantly
